Results on 32 molecules are retold here after PubChem BioAssay AID652106 (National Center for Advancing Translational Sciences (NCATS), 2013).

SMILES strings stand for the structures. The entries are a selection whose mix differs from that of the whole data set. Some results for these compounds are left out of this collection, so the calls shown say nothing about other tests. Active and inactive are the calls of the source. Calls follow the shape of the dose curve; as a rule, active = well fitted activation curve with a large enough effect; inconclusive = small, poorly fitted or top-dose-only effect; inactive = no such curve, though single readings can be large or run the other way.

This assay is described as follows: qHTS of alpha-syn Inhibitors. Also: % of control where 0% means no effect; nearly all actives have a fitted effect of over 65% in size. To be noted: Yeast expressing alpha-synuclein, BacTiter-Glo, 24 h; at 46.1 µM (top of the series). The source says:
The goal of this project is to identify new chemical probes capable of reversing the toxicity associated with the Parkinson disease-related protein, alpha-synuclein. Compounds will be selected on their ability to restore growth in yeast cells expressing toxic levels of alpha-synuclein. These compounds will provide a complementary approach to deciphering the tangled mechanisms of toxicity and protection that we have uncovered through genome-wide genetic screens and are beginning to uncover in a large-scale proteomics analysis with mass spectroscopy. To this end, a miniaturized assay was developed to be screened against the Molecular Libraries Small Molecule Repository (MLSMR) to discover alpha-synuclein inhibitors. Please note that in the set-up this yeast-based assay compounds that inhibit as alpha-syn, have a read-out as activators. NIH Chemical Genomics Center [NCGC] NIH Molecular Libraries Probe Centers Network [MLPCN] MLPCN Grant: NS060957 Assay Submitter (PI): Susan Lindquist, Whitehead Institute/MIT
Dispense 2.5 microL yeast galactose medium per 1536-well plate, pin compound, dispense 2.5 microL alpha-synuclein expressing yeast in galactose medium at OD600=0.02 (pregrown in raffinose medium to mid-log phase) per well, incubate for 24 hr at 30 deg C, and cell growth will be measured using 5 microL of Bactiter/Glo reagent to entire plate and read using Luminescence Protocol in ViewLux.
In general terms: qHTS replaces the single test concentration by a dilution series.
Regarding `COc1cccc(C(=O)NCC2(N3CCOCC3)CCCCC2)c1`, the growth rescue (activation) was inactive: -1.42%.
With `O=C(OC1CN2CCC1CC2)C(CO)(c1ccccc1)c1ccccc1` (configuration not stated), the growth rescue (activation) was inactive: -0.578%.
For the molecule `O=C(OCCN1CCCC1)C(O)(c1ccccc1)c1ccccc1`, the growth rescue (activation) is inactive: -6.8%.
Regarding `CC(C)Oc1ccc(C(=O)NCC2(N(C)C)CCCCC2)cc1`, the growth rescue (activation) is inactive: 0.412%.
Under `CN(C)c1cccc(C(=O)NCC2(N(C)C)CCCCC2)c1` stands inactive: -2.51%; under `C=C(C)C#CC(O)(C(=O)OC1CCN(C)CC1)c1ccccc1` (configuration not stated), inactive: 2.09%.
Under `COc1ccc(Br)c(C(=O)NCC2(N3CCCCC3)CCCCC2)c1` stands inactive: 0.288%.
Under `COc1cc(C(=O)NCC2(N(C)C)CCCCC2)c([N+](=O)[O-])cc1OC` stands inactive: 0.119%; under `O=C(CBr)c1ccc(Cl)cc1`, inactive: 1.86%; under `CN(C)C1(CNC(=O)c2ccc(Br)cc2)CCCCC1`, inactive: -6.94%.
On to `O=C(NCC1(N2CCCCC2)CCCCC1)c1cccc(Cl)c1`, for which the growth rescue (activation) is inactive: 1.46%.
The result for `COc1ccc(Cl)cc1C(=O)NCC1(N(C)C)CCCCC1` reads inactive: -2.46%; that for `COc1cccc(C(=O)NCC2(N3CCCCC3)CCCCC2)c1`, inactive: -5.83%.
Under `CCCCOc1ccccc1C(=O)NCC1(N(C)C)CCCCC1` stands inactive: 1.44%; under `CN(C)c1ccc(C(=O)NCC2(N(C)C)CCCCC2)cc1`, inactive: -3.65%; under `CN(C)C1CCCC1OC(=O)C(O)(c1ccccc1)c1ccccc1` (configuration not stated), inactive: 0.832%.
Take `Cc1ccccc1C(=O)NCC1(N2CCCCC2)CCCCC1`: the growth rescue (activation) was inactive: 5.46%.
On to `CN(C)C1(CNC(=O)c2ccccc2[N+](=O)[O-])CCCCC1`, for which the growth rescue (activation) was inactive: 22.2%.
The result for `CCOc1cccc(C(=O)NCC2(N(C)C)CCCCC2)c1` reads inactive: -4.15%; that for `COc1ccc(C(=O)NCC2(N(C)C)CCCCC2)cc1`, inactive: 2.88%.
On to `O=C(NCC1(N2CCCCC2)CCCCC1)c1cccc(Br)c1`, for which the growth rescue (activation) is inactive: 1.45%.
On to `CCN1CCCC(OC(=O)C2(O)c3ccccc3C=Cc3ccccc32)C1` (configuration not stated), for which the growth rescue (activation) is inactive: 0.159%.
As for `Cc1cc(C(=O)NCC2(N3CCCCC3)CCCCC2)ccc1[N+](=O)[O-]`, the growth rescue (activation) is inactive: -2.02%.
The result for `O=C(NCC1(N2CCCCC2)CCCCC1)c1cc(F)c(F)cc1Cl` reads inactive: 1.12%.
Under `C=CCN1CCN(CCOC(=O)C(O)(c2ccccc2)c2ccccc2)CC1` stands inactive: -1.45%; under `CN1[C@@H]2CC[C@H]1CC(OC(=O)C(O)(c1ccccc1)c1ccccc1)C2` (some centres not stated), inactive: -1.07%.
Consider `O=C(NCC1(N2CCCCC2)CCCCC1)c1cc([N+](=O)[O-])ccc1Cl`, for which the growth rescue (activation) was inactive: 5.03%.
Under `Cc1ccc(C(=O)NCC2(N3CCCCC3)CCCCC2)cc1` stands inactive: -0.357%; under `CN(C)C1(CNC(=O)c2ccccc2F)CCCCC1`, inactive: 1.85%.
`COc1cc(SC)ccc1C(=O)NCC1(N(C)C)CCCCC1`: the growth rescue (activation) is inactive: 0.374%.
Under `CCN(CC)CC(C)C(C)OC(=O)C(O)(c1ccccc1)c1ccccc1` (configuration not stated) stands inactive: -6.68%; under `CC(C)N1C(=O)CC2(CCN(CCOC(=O)C(O)(c3ccccc3)c3ccccc3)CC2)C1=O`, inactive: 2.92%.
